These results are taken from PubChem BioAssay AID2435 (The Scripps Research Institute Molecular Screening Center, 2010).

Protein sequences, listed by entry. Tags and fused reporters are not part of them.
UniProt P30559, whole entry: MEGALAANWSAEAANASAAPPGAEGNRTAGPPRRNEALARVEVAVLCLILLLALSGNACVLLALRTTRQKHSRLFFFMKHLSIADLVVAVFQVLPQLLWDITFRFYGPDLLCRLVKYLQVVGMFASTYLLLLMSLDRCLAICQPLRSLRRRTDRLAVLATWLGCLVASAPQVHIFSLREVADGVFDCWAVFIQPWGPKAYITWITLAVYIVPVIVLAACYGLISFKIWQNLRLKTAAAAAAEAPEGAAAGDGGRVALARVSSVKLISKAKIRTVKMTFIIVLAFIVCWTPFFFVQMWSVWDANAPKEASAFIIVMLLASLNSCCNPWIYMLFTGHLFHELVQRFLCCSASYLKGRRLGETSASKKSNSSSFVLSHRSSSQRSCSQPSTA

Each structure is given as a SMILES string. The entries are a selection whose mix differs from that of the whole data set. Some tests of the compounds listed are not included; inactive here does not mean inactive elsewhere. Calls of active or inactive are those of the source.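 How the source made its calls: active means activation above the mean of all tested compounds plus 3 SD, cutoff set per screening run (cut at about 20% in these data); inactive means the rest.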

For the assay, the target named is Oxytocin receptor (Homo sapiens) (UniProt P30559). As to the kind of experiment: human OXTR agonists, primary screen, fluorescence, CHO-OTR cells, Fluo-8 calcium (AID 2435).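 Further: peak over basal fluorescence ratio from a 100 s FLIPR kinetic read.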 The following applies: Fluo-8 calcium fluorescence, at 3 µM, stronger effect = higher value, normalized: DMSO 0%, oxytocin 100%.
In the case of `Cc1cc(C(=O)NCC2(N3CCCCC3)CCCCC2)ccc1[N+](=O)[O-]`, the activation is inactive: -0.54%.

On to `CCN1CCCC(OC(=O)C2(O)c3ccccc3C=Cc3ccccc32)C1` (centres undefined), for which the activation was inactive: 2.43%.

As to `O=C(NCC1(N2CCCCC2)CCCCC1)c1cccc(Br)c1`, the activation is inactive: -0.53%. The same measure for `COc1ccc(C(=O)NCC2(N(C)C)CCCCC2)cc1`: inactive: 1.09%. As for `C=CCN1CCN(CCOC(=O)C(O)(c2ccccc2)c2ccccc2)CC1`, the activation was inactive: 0.79%.

`O=C(NCC1(N2CCCCC2)CCCCC1)c1cc(F)c(F)cc1Cl`: the activation was inactive: 0.34%. The same measure for `Cc1ccccc1C(=O)NCC1(N2CCCCC2)CCCCC1`: inactive: -0.42%; for `CN(C)C1CCCC1OC(=O)C(O)(c1ccccc1)c1ccccc1` (centres undefined): inactive: 1.12%; for `CN(C)c1ccc(C(=O)NCC2(N(C)C)CCCCC2)cc1`: inactive: 0.34%.

With `Cc1ccc(C(=O)NCC2(N3CCCCC3)CCCCC2)cc1`, the activation was inactive: 0.59%. The same measure for `CC(C)N1C(=O)CC2(CCN(CCOC(=O)C(O)(c3ccccc3)c3ccccc3)CC2)C1=O`: inactive: -0.8%; for `CCN(CC)CC(C)C(C)OC(=O)C(O)(c1ccccc1)c1ccccc1` (centres undefined): inactive: -0.24%; for `COc1cc(SC)ccc1C(=O)NCC1(N(C)C)CCCCC1`: inactive: -0.29%.

As to `CN1[C@@H]2CC[C@H]1CC(OC(=O)C(O)(c1ccccc1)c1ccccc1)C2` (some centres undefined), the activation was inactive: 0.92%. With `O=C(NCC1(N2CCCCC2)CCCCC1)c1cc([N+](=O)[O-])ccc1Cl` the figure was inactive: -0.98%. For `CN(C)c1cccc(C(=O)NCC2(N(C)C)CCCCC2)c1`, the activation was inactive: 0.07%. The same measure for `CC(C)Oc1ccc(C(=O)NCC2(N(C)C)CCCCC2)cc1`: inactive: 1.5%; for `COc1ccc(Br)c(C(=O)NCC2(N3CCCCC3)CCCCC2)c1`: inactive: -0.35%. With `O=C(OC1CN2CCC1CC2)C(CO)(c1ccccc1)c1ccccc1` (centres undefined) the figure was inactive: 1.21%.

As to `O=C(NCC1(N2CCCCC2)CCCCC1)c1cccc(Cl)c1`, the activation is inactive: 1.18%. Regarding `COc1cccc(C(=O)NCC2(N3CCCCC3)CCCCC2)c1`, the activation was inactive: -0.93%. For `COc1ccc(Cl)cc1C(=O)NCC1(N(C)C)CCCCC1`, the activation was inactive: 1.48%.

As to `COc1cc(C(=O)NCC2(N(C)C)CCCCC2)c([N+](=O)[O-])cc1OC`, the activation was inactive: 0.26%. The same measure for `CN(C)C1(CNC(=O)c2ccc(Br)cc2)CCCCC1`: inactive: -1.02%.
